Read-outs that look alike come from different tables or passages of the source.
Legend:
[1] = system: PC3 tumor-bearing nude mice; assay type: in vivo; conditions: 177Lu-labeled, 200 μCi/kg i.v.
[2] = system: human PC-3 nude mouse model; assay type: in vivo; conditions: 1 hour
[3] = system: human PC-3 nude mouse model; assay type: in vivo; conditions: 177Lu complex, i.v.
GRP-R [4] = biological target: T1, GRP-R (Homo sapiens, UniProt P30550); assay: Competition assay with 125I-BBN for GRP-R in PC3 cells (IC50); assay type: binding; parameters: host or cells: PC3 / PC-3 human prostate cancer cells (intact, plated)
NMB-R = NMB-R (Homo sapiens, UniProt P28336); conditions: read-out: IC50, NMB-R; human ileal carcinoid tissue; radiotracer 125I-[DTyr6, βAla11, Phe13, Nle14]-BBN(6-14); mean ± SEM
GRP-R [5] = biological target: T1, GRP-R; conditions: read-out: IC50, GRP-R; human prostate carcinoma tissue; radiotracer 125I-[DTyr6, βAla11, Phe13, Nle14]-BBN(6-14); mean ± SEM
BB3 = BB3 (Homo sapiens, UniProt P32247); conditions: read-out: IC50, BB3; human bronchial carcinoid tissue; radiotracer 125I-[DTyr6, βAla11, Phe13, Nle14]-BBN(6-14); mean ± SEM
[6] = concentration of compound to inhibit 50% binding of iodinated bombesin to a GRP receptor on cells, read-out: IC50

Sequences of proteins named here, by UniProt entry; tags and fusion partners are left off. A change or cut given only in a name is not applied to a line headed by its entry.
UniProt P30550: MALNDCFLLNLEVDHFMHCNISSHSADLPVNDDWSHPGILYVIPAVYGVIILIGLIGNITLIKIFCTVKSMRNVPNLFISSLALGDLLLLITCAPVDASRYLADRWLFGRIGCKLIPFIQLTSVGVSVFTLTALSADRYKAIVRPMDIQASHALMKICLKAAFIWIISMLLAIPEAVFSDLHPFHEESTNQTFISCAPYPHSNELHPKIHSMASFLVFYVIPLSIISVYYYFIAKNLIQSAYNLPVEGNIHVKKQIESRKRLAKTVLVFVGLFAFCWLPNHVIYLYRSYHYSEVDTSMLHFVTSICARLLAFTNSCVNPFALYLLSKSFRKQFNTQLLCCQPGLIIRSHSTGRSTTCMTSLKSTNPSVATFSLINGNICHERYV
UniProt P28336: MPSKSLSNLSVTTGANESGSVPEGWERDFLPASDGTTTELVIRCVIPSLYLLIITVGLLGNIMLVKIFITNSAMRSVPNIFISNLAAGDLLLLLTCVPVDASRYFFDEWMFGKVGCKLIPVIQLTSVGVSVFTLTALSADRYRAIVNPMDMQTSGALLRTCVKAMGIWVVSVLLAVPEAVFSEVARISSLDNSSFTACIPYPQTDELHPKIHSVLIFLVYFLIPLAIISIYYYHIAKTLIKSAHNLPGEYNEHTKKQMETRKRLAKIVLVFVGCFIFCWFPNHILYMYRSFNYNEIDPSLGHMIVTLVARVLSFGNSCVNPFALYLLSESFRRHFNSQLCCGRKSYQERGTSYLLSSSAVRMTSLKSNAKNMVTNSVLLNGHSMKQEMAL
UniProt P32247: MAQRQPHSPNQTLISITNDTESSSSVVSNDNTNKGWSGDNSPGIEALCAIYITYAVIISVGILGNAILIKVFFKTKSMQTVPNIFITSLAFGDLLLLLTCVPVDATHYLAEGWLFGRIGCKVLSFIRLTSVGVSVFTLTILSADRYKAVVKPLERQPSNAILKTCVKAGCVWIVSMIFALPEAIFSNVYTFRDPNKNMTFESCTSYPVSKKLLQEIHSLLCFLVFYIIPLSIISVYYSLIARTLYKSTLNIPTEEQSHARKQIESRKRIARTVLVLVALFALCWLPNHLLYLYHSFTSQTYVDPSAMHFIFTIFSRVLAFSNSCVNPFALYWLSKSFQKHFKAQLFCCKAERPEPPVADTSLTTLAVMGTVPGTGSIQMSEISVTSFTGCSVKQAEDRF

Substance: N-[4-[[[[[4,7,10-Tris(carboxymethyl)-1,4,7,10-tetraazacyclododec-1-yl]acetyl]amino]acetyl]amino]benzoyl]-L-glutaminyl-L-tryptophyl-L-alanyl-L-valyl-glycyl-L-histidyl-L-leucyl-L-methioninamide [Compound L70]
- uptake in the mouse pancreas compared with control compound [1]: much higher
- uptake in the tumor compared with control DO3A-monoamide-Aoc-QWAVGHLM-NH2 ([1]; 1 and 24 h): much higher
- Blood (% ID) ([1]; 1 hr): 0.33 % ID
- Kidneys ([1]; 1 hr): 6.01 % ID/g
- Liver (% ID) ([1]; 1 hr): 0.77 % ID
- Pancreas ([1]; 1 hr): 42.34 % ID/g
- Tumor ([1]; 1 hr): 6.42 % ID/g
- Blood (% ID) ([1]; 24 hr): 0.03 % ID
- Kidneys ([1]; 24 hr): 2.31 % ID/g
- Liver (% ID) ([1]; 24 hr): 0.10 % ID
- Pancreas ([1]; 24 hr): 40.24 % ID/g
- Tumor ([1]; 24 hr): 3.50 % ID/g
- gastrointestinal radioactivity after L70 pre-treatment ([2]; L70 0.64 μg i.v. 5, 15 and 60 minutes prior to 177Lu-L70): decreases
- radioactivity in the pancreas after L70 pre-treatment ([2]; L70 0.64 μg i.v. 5 or 15 minutes prior to 177Lu-L70): significant decrease
- Blood 24 h % ID ([3]; 24 h): 0.02 ± 0.00 % ID
- Blood 7 d % ID ([3]; 7 d): 0.00 ± 0.00 % ID

Substance: N-[(3β,5β,12α)-3-[[[4,7,10-Tris(carboxymethyl)-1,4,7,10-tetraazacyclododec-1-yl]acetyl]amino]-4-aminobenzoyl-glycyl-L-glutaminyl-L-tryptophyl-L-alanyl-L-valyl-glycyl-L-histidyl-L-leucyl-L-methioninamide [Compound L204]
- IC50 (GRP-R [4]; [6]): 50 nM

Substance: DO3A-monoamide-8-amino-octanoic acid-BBN (7-14) [reference compound]
- Blood (% ID) ([1]; 1 hr): 0.44 % ID
- Kidneys ([1]; 1 hr): 7.65 % ID/g
- Liver (% ID) ([1]; 1 hr): 0.38 % ID
- Pancreas ([1]; 1 hr): 28.60 % ID/g
- Tumor ([1]; 1 hr): 3.66 % ID/g
- Blood (% ID) ([1]; 24 hr): 0.03 % ID
- Kidneys ([1]; 24 hr): 1.03 % ID/g
- Liver (% ID) ([1]; 24 hr): 0.04 % ID
- Pancreas ([1]; 24 hr): 1.01 % ID/g
- Tumor ([1]; 24 hr): 1.52 % ID/g

Substance: [DTyr^6, βAla^11, Phe^13, Nle^14]-BBN(6-14) [Universal ligand]
- IC50 (NMB-R): 0.8 ± 0.1 nM
- IC50 (GRP-R [5]): 0.7 ± 0.1 nM
- IC50 (BB3): 1.1 ± 0.1 nM

Substance: N-[(3β,5β,12α)-3-[[[4,7,10-Tris(carboxymethyl)-1,4,7,10-tetraazacyclododec-1-yl]acetyl]amino]-glycyl-4-aminobenzoyl-D-tyrosinyl-L-glutaminyl-L-tryptophyl-L-alanyl-L-valyl-betaalanyl-L-histidyl-L-phenylalanyl-L-norleucinamide [Compound L222]
- IC50 (GRP-R [4]; title of Table 19, PC3/GRP-R, read-out: level at which the universal agonists compete (IC50)): ~50 nM

Substance: N-[6-[[[[[4,7,10-Tris(carboxymethyl)-1,4,7,10-tetraazacyclododec-1-yl]acetyl]amino]acetyl]amino]naphthoyl]-L-glutaminyl-L-tryptophyl-L-alanyl-L-valyl-glycyl-L-histidyl-L-leucyl-L-methioninamide [Compound L234]
- IC50 (GRP-R [4]; [6]): 3 nM

Reference: patent US20130136691A1, “GASTRIN […] PEPTIDE COMPOUNDS” (priority 2008, published 2013)
